In IntAct's records for PubMed 35512704:

B1: RAC-alpha serine/threonine-protein kinase (Homo sapiens), P31749 (parent)
chain: MSDVAIVKEGWLHKRGEYIKTWRPRYFLLKNDGTFIGYKERPQDVDQREAPLNNFSVAQCQLMKTERPRPNTFIIRCLQWTTVIERTFHVETPEEREEWTTAIQTVADGLKKQEEEEMDFRSGSPSDNSGAEEMEVSLAKPKHRVTMNEFEYLKLLGKGTFGKVILVKEKATGRYYAMKILKKEVIVAKDEVAHTLTENRVLQNSRHPFLTALKYSFQTHDRLCFVMEYANGGELFFHLSRERVFSEDRARFYGAEIVSALDYLHSEKNVVYRDLKLENLMLDKDGHIKITDFGLCKEGIKDGATMKTFCGTPEYLAPEVLEDNDYGRAVDWWGLGVVMYEMMCGRLPFYNQDHEKLFELILMEEIRFPRTLGPEAKSLLSGLLKKDPKQRLGGGSEDAKEIMQHRFFAGIVWQHVYEKKLSPPFKPQVTSETDTRYFDEEFTAQMITITPPDQDDSMECVDSERRPHFPQFSYSASGTA

Variants of: B1
Conditions: with csf1r_human CSF1R

Variant	effect of a mutation on the interaction
E17K	with no effect

Variants of: B1
Conditions: with ctla4_human CTLA4, P16410

Variant	effect of a mutation on the interaction
E17K	with no effect

Variants of: B1
Conditions: with cul3_human CUL3, Q13618

Variant	effect of a mutation on the interaction
E17K	with no effect

Variants of: B1
Conditions: with cul4b_human CUL4B

Variant	effect of a mutation on the interaction
E17K	with no effect

Variants of: B1
Conditions: with daxx_human DAXX

Variant	effect of a mutation on the interaction
E17K	with no effect

Variants of: B1
Conditions: with ddx5_human DDX5, P17844

Variant	effect of a mutation on the interaction
E17K	with no effect

Variants of: B1
Conditions: with dicer_human DICER1, Q9UPY3

Variant	effect of a mutation on the interaction
E17K	with no effect

Variants of: B1
Conditions: with dnm3a_human DNMT3A

Variant	effect of a mutation on the interaction
E17K	with no effect

Variants of: B1
Conditions: with e2f1_human E2F1, Q01094

Variant	effect of a mutation on the interaction
E17K	with no effect

Variants of: B1
Conditions: with e2f3_human E2F3, O00716

Variant	effect of a mutation on the interaction
E17K	with no effect

Variants of: B1
Conditions: with e2f4_human E2F4, Q16254

Variant	effect of a mutation on the interaction
E17K	with no effect

Variants of: B1
Conditions: with e2f6_human E2F6, O75461

Variant	effect of a mutation on the interaction
E17K	with no effect

Variants of: B1
Conditions: with e2f8_human E2F8, A0AVK6

Variant	effect of a mutation on the interaction
E17K	with no effect

Variants of: B1
Conditions: with if4e_human EIF4E

Variant	effect of a mutation on the interaction
E17K	with no effect

Variants of: B1
Conditions: with if5a2_human EIF5A2, Q9GZV4

Variant	effect of a mutation on the interaction
E17K	with no effect

Variants of: B1
Conditions: with ephb1_human EPHB1, P54762

Variant	effect of a mutation on the interaction
E17K	with no effect

Variants of: B1
Conditions: with erbb3_human ERBB3, P21860

Variant	effect of a mutation on the interaction
E17K	with no effect

Variants of: B1
Conditions: with tnr6_human FAS

Variant	effect of a mutation on the interaction
E17K	with no effect

Variants of: B1
Conditions: with fgfr1_human FGFR1, P11362

Variant	effect of a mutation on the interaction
E17K	with no effect

Variants of: B1
Conditions: with fgfr4_human FGFR4, P22455

Variant	effect of a mutation on the interaction
E17K	with no effect

Variants of: B1
Conditions: with fumh_human FH

Variant	effect of a mutation on the interaction
E17K	with no effect

Variants of: B1
Conditions: with gbra1_human GABRA1, P14867

Variant	effect of a mutation on the interaction
E17K	with no effect

Variants of: B1
Conditions: with gbra6_human GABRA6, Q16445

Variant	effect of a mutation on the interaction
E17K	with no effect

Variants of: B1
Conditions: with gnaq_human GNAQ

Variant	effect of a mutation on the interaction
E17K	with no effect

Variants of: B1
Conditions: with grm1_human GRM1, Q13255

Variant	effect of a mutation on the interaction
E17K	with no effect

Variants of: B1
Conditions: with grm3_human GRM3, Q14832

Variant	effect of a mutation on the interaction
E17K	with no effect

Variants of: B1
Conditions: with gsk3a_human GSK3A

Variant	effect of a mutation on the interaction
E17K	with no effect

Variants of: B1
Conditions: with gsk3b_human GSK3B

Variant	effect of a mutation on the interaction
E17K	with no effect

Variants of: B1
Conditions: with gtpb4_human GTPBP4

Variant	effect of a mutation on the interaction
E17K	with no effect

Variants of: B1
Conditions: with hgf_human HGF

Variant	effect of a mutation on the interaction
E17K	with no effect

Variants of: B1
Conditions: with hif1a_human HIF1A

Variant	effect of a mutation on the interaction
E17K	with no effect

Variants of: B1
Conditions: with h31_human H3C1

Variant	effect of a mutation on the interaction
E17K	with no effect

Variants of: B1
Conditions: with hlab_human HLA-B

Variant	effect of a mutation on the interaction
E17K	with no effect

Variants of: B1
Conditions: with hnf1a_human HNF1A

Variant	effect of a mutation on the interaction
E17K	with no effect

Variants of: B1
Conditions: with igf1r_human IGF1R

Variant	effect of a mutation on the interaction
E17K	with no effect

Variants of: B1
Conditions: with igf2_human IGF2, P01344

Variant	effect of a mutation on the interaction
E17K	with no effect

Variants of: B1
Conditions: with il7ra_human IL7R

Variant	effect of a mutation on the interaction
E17K	with no effect

Variants of: B1
Conditions: with int12_human INTS12

Variant	effect of a mutation on the interaction
E17K	with no effect

Variants of: B1
Conditions: with irf6_human IRF6

Variant	effect of a mutation on the interaction
E17K	with no effect

Variants of: B1
Conditions: with jak1_human JAK1, P23458

Variant	effect of a mutation on the interaction
E17K	with no effect

Variants of: B1
Conditions: with jak3_human JAK3, P52333

Variant	effect of a mutation on the interaction
E17K	with no effect

Variants of: B1
Conditions: with kat2a_human KAT2A

Variant	effect of a mutation on the interaction
E17K	with no effect

Variants of: B1
Conditions: with kdm6a_human KDM6A

Variant	effect of a mutation on the interaction
E17K	with no effect

Variants of: B1
Conditions: with vgfr2_human KDR

Variant	effect of a mutation on the interaction
E17K	with no effect

Variants of: B1
Conditions: with rask_human KRAS

Variant	effect of a mutation on the interaction
E17K	with no effect

Variants of: B1
Conditions: with lims1_human LIMS1, P48059

Variant	effect of a mutation on the interaction
E17K	with no effect

Variants of: B1
Conditions: with mp2k7_human MAP2K7, O14733

Variant	effect of a mutation on the interaction
E17K	with no effect

Variants of: B1
Conditions: with mk14_human MAPK14

Variant	effect of a mutation on the interaction
E17K	with no effect

Variants of: B1
Conditions: with mk03_human MAPK3, P27361

Variant	effect of a mutation on the interaction
E17K	with no effect

Variants of: B1
Conditions: with mk06_human MAPK6

Variant	effect of a mutation on the interaction
E17K	with no effect

Variants of: B1
Conditions: with mlh1_human MLH1, P40692

Variant	effect of a mutation on the interaction
E17K	with no effect

Variants of: B1
Conditions: with myd88_human MYD88, Q99836

Variant	effect of a mutation on the interaction
E17K	with no effect

Variants of: B1
Conditions: with nduc2_human NDUFC2

Variant	effect of a mutation on the interaction
E17K	with no effect

Variants of: B1
Conditions: with nf1_human NF1, P21359

Variant	effect of a mutation on the interaction
E17K	with no effect

Variants of: B1
Conditions: with nox1_human NOX1, Q9Y5S8

Variant	effect of a mutation on the interaction
E17K	with no effect

Variants of: B1
Conditions: with npm_human NPM1

Variant	effect of a mutation on the interaction
E17K	with no effect

Variants of: B1
Conditions: with nqo1_human NQO1

Variant	effect of a mutation on the interaction
E17K	with no effect

Variants of: B1
Conditions: with ntrk3_human NTRK3, Q16288

Variant	effect of a mutation on the interaction
E17K	with no effect
